Experimental data from patent publication US5869602A, “Peptide derivatives” (Novo Nordisk A/S, priority 1995, dated 1999).

Settings: subcutaneous injection in pigs, external γ-counter

Arg^4,Arg^9,Lys^15 (N^ε -tetradecanoyl) somatostatin [Example 4]
T50% (time when 50% of the 125I-labelled peptide has disappeared from the site of injection): 1.7 ± 0.5 h
